The values below come from article PMC11743672, “Characterization of the ligand-binding properties of odorant-binding protein 38 from Riptortus pedestris when interacting with soybean volatiles” (Frontiers in Physiology, 2025).

Sequences of proteins named here, by UniProt entry; tags and fusion partners are left off.
UniProt A0A2Z4HQ26, entry or part of it: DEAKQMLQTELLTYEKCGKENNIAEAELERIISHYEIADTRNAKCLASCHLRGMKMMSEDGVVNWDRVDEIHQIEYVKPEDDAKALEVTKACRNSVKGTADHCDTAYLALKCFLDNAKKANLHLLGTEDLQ

In the experiment the target is RpedOBP38 (Riptortus pedestris, UniProt A0A2Z4HQ26). The experiment can be described thus: Fluorescence competitive binding assay (1-NPN displacement). An excerpt:
Recombinant RpedOBP38 binding to putative chemical ligands was characterized with a microplate reader (BioTek Synergy H1, United States). Fluorescence intensity values at the excitation wavelength of 337 nm and a maximum fluorescence emission wavelength of 450 nm were plotted against the free concentration of ligand for the measurement of dissociation constants, selecting candidate ligands from among 36 volatile compounds that included 11 green leaf volatiles ([Chen et al., 2018]; [Guo and Wang, 2019]; [Cheng et al., 2020]; [Hong et al., 2022]; [Tang et al., 2023]; [Zhu et al., 2023]), 11 soybean volatiles ([Wang et al., 2019a]; [Zhu et al., 2022]), 10 repellent activity volatiles ([Zhang et al., 2013]; [Zhang et al., 2014]), and 4 aggregation pheromone compounds ([Leal et al., 1995]; [Yasuda et al., 2007]). HPLC-grade methanol was used for the dissolution of the probe N-phenyl-1-naphthylamine (1-NPN) and all ligands. The ability of RpedOBP38 to bind 1-NPN was assessed by using 10 mM PBS (pH 7.4) to prepare a 2 μM purified protein solution, titrating with 1 mM 1-NPN in methanol to prepare final concentrations from 2–20 μM. RpedOBP38 binding to each ligand was evaluated in a solution consisting of 2 μM purified protein and 1-NPN, followed by titration through the addition of ligands until no further decrease in the fluorescence intensity was observed. […]

A value given as a limit tells only on which side of the number the result lay.

As usually defined, the IC50 is the concentration that inhibits the measured activity by half. A word on the Ki: it is the dissociation constant of the complex between target and ligand, obtained from inhibition or displacement. Turning to (+)-α-pinene, for the setting “2 μM recombinant RpedOBP38 and 1-NPN, PBS pH 7.4, three replicates”, the IC50 is above 40 µM. Further, the Ki (Ki = [IC50]/(1 + [1-NPN]/K1-NPN), 2 μM protein and 1-NPN, Ki > 40 considered weak binding) was above 40 µM.
